BindingDB's records for US9598411

Molecular target: Delta-type opioid receptor (Homo sapiens, UniProt P41143)
Assay: In Vitro ORL-1 Receptor Binding Assay

NC(=O)/N=c1\[nH]c2ccccc2n1C1CCN(C2CCCCCCC2)CC1 was tested, and the Ki was 10 nM.
